Measurements: PMC9420430 (Current Research in Immunology, 2022)

System: β2m
Experiment: Thermal stability by nanoscale differential scanning fluorimetry, β2m
Design: species or system human
Conditions: no reagent; β2m alone, citrate-phosphate buffer pH 7.6, 1.0 °C/min

Question: For β2m: (human) beta-2 microglobulin, which Tm is on record?
Answer: 65.5 °C
